# Test results published in publication PMC8876274.
# Target: anti-dansyl mouse IgG2a(κ) variant with shorter heavy chains devoid of the CH1 domain (mouse)
# Assay: high-speed atomic force microscopy (HS-AFM); single-molecule dwell (binding) times of C1 or C1q on sparsely distributed antibodies on bare mica, no antigen; TNC buffer, 25 °C
residence time [s],stoichiometry N,Substance
> 10,1,"complement component C1 complex composed of C1q, C1r and C1s (from UniProt P02745 23-245; P02746 28-253; P02747 29-245)"
,1,complement component C1q (from UniProt P02745 23-245; P02746 28-253; P02747 29-245) (complex)
